Experimental data taken from patent US8221566B1.
Only a part of the results on these compounds is given; other tests are left out.

Key:
Bacillus spores = test: Chamber swabs cultured for bacterial growth (cross-contamination check)
[1] = test system: Bacillus spores (anthrax surrogates); test: Overall viability and kill rate of all Bacillus spores after detonation exposure; conditions: total anthrax surrogate spores (1.896±0.264)×10^7

For `O=[N+]([O-])N1CC(N(F)F)(N(F)F)CN([N+](=O)[O-])CC(N(F)F)(N(F)F)C1`, the “Colony forming units (CFU)” value (Bacillus spores; Detonation 1, 0.4 h exposure) was 0 CFU, the “Colony forming units (CFU)” value (Bacillus spores; Detonation 2, 2.9 h exposure) was 0 CFU and the “Colony forming units (CFU)” value (Bacillus spores; Detonation 3, 24.0 h exposure) was 0 CFU. For the same compound, the Kill rate [1] was > 7 log10 orders of magnitude.
